Experiment: Beta glucan gel mediated oral delivery of nutraceuticals (absorption, pharmacokinetics)
From the text: Beta-glucan compositions can be used to delivery other nutrients or therapeutic molecule via oral delivery.

For O=S(=O)([O-])[O-].[Fe+2] [iron sulfate], the regular absorption rate (iron sulfate without beta glucan) was about 1% and the “absorption enhancement by Beta glucan” value (with Beta glucan, given orally) was 60 folds.
